Source: patent US5030634A, “10-deazaaminopterin: a new arthritis remittive drug” (priority 1990, dated 1991)
Like-named read-outs stand apart in the source and are kept apart here.

Legend:
[1] = tested on: rheumatoid arthritis patients; details: for Joint Swelling: 58 joints (0-3/joint), values printed on the line 'Grip Strength'; for Joint Pain/Tenderness: 60 joints (0-3/joint)
[2] = compared with methotrexate; cited from earlier work
[3] = V6 (6th visit, week 18), n = 5 10-deazaaminopterin, n = 6 methotrexate

SMILES | General Activity Level (0-16) ([1]; V0 (baseline), n = 7 per arm) | Grip Strength L ([1]; V0 (baseline), n = 7 per arm) | Grip Strength R ([1]; V0 (baseline), n = 7 per arm) | Morning Stiffness ([1]; V0 (baseline), n = 7 per arm) | Pain Level (0-3) ([1]; V0 (baseline), n = 7 per arm) | Patient Assessment (1-5) ([1]; V0 (baseline), n = 7 per arm) | Physician Assessment (1-5) ([1]; V0 (baseline), n = 7 per arm) | Joint Swelling ([1]; V0 (baseline), n = 7 per arm) | Joint Pain/Tenderness ([1]; V0 (baseline), n = 7 per arm) | Grip Strength L ([1]; V3 (3rd visit), n = 7 per arm) | Grip Strength R ([1]; V3 (3rd visit), n = 7 per arm) | Morning Stiffness ([1]; V3 (3rd visit), n = 7 per arm) | Joint Swelling ([1]; V3 (3rd visit), n = 7 per arm) | Joint Pain/Tenderness ([1]; V3 (3rd visit), n = 7 per arm) | General Activity Level (0-16) [1, 3] | Grip Strength L [1, 3] | Grip Strength R [1, 3] | Morning Stiffness [1, 3] | Pain Level (0-3) [1, 3] | Patient Assessment (1-5) [1, 3] | other results
Nc1nc(N)c2nc(CCc3ccc(C(=O)NC(CCC(=O)O)C(=O)O)cc3)cnc2n1 (centres unmarked) [10-deazaaminopterin] | 7.8 | 123 mm Hg | 122 mm Hg | 1.47 h | 1.8 | 2.7 | 2.7 | 21.5 | 30.1 | 136 mm Hg | 171 mm Hg | 0.60 h | 15.2 | 18.5 | 2.2 | 188 mm Hg | 184 mm Hg | 0.05 h | 0.8 | 2.3 | Physician Assessment (1-5) [1, 3]: 2.3; Joint Swelling [1, 3]: 11.4; Joint Pain/Tenderness [1, 3]: 10.8; Anti-proliferative activity versus methotrexate (in words) [2]: more powerful anti-proliferative agent than methotrexate
CN(Cc1cnc2nc(N)nc(N)c2n1)c1ccc(C(=O)N[C@@H](CCC(=O)O)C(=O)O)cc1 [methotrexate, reference compound] | 6.8 | 132 mm Hg | 140 mm Hg | 0.84 h | 2.3 | 2.3 | 2.1 | 27.8 | 33.2 | 138 mm Hg | 147 mm Hg | 0.32 h | 23 | 17.2 | 3.5 | 145 mm Hg | 163 mm Hg | 0.37 h | 1 | 2.1 | Physician Assessment (1-5) [1, 3]: 2.1; Joint Swelling [1, 3]: 13.8; Joint Pain/Tenderness [1, 3]: 12
